# In patent publication US11618753B2 (priority 2018, dated 2023):
# The chains behind the UniProt entries cited, without tags or fusion partners. Where a name states a change or a piece, a line headed by the entry shows the natural chain unless it says otherwise.
# UniProt O00329: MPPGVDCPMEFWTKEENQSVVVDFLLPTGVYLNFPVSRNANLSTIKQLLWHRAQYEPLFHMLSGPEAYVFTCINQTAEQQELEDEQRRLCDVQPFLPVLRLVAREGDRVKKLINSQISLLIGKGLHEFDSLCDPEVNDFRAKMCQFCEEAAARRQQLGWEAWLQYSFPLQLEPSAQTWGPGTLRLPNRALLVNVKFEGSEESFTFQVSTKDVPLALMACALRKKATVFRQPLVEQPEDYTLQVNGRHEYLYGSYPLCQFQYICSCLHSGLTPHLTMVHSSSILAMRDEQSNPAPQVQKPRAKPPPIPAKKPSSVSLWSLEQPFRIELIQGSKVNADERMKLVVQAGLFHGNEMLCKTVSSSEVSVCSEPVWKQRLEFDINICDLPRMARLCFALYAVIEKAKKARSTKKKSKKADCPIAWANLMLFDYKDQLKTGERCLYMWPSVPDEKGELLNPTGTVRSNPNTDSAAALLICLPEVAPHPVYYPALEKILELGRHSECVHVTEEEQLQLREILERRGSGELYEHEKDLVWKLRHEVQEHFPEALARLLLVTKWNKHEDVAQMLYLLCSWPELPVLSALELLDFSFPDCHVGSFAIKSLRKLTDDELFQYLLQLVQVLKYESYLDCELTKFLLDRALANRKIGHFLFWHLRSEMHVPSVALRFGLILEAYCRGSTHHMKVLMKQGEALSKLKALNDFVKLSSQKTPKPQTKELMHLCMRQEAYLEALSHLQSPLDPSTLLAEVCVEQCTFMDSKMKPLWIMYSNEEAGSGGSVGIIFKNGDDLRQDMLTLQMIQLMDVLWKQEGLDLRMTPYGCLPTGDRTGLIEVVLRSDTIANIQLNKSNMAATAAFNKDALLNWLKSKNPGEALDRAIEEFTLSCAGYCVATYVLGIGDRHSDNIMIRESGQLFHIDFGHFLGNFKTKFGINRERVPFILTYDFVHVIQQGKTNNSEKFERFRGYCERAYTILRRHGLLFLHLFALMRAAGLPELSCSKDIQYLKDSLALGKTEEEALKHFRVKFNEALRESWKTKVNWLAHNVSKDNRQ
# Target: GST-tagged PIK3Cδ in complex with PIK3R1 (Homo sapiens (Human), UniProt O00329)
# Assay: biochemical
smiles,measurement,value
"COc1ccc(-c2cc(C(F)(F)F)c3c(N)ncnn23)cc1C(=O)N[C@@H]1CN(C(=O)CC(O)(C(F)(F)F)C(F)(F)F)C[C@@H]1F [Example 1126, 5-[4-amino-5-(trifluoromethyl)pyrrolo[2,1-f][1,2,4]triazin-7-yl]-N-[(3R,4S)-4-fluoro-1-[4,4,4-trifluoro-3-hydroxy-3-(trifluoromethyl)butanoyl]pyrrolidin-3-yl]-2-methoxybenzamide]",IC50,2.24 µM
"COc1ccc(-c2cc(C(F)(F)F)c3c(N)ncnn23)cc1C(=O)N[C@@H]1CN(C(=O)C2CC(F)(F)C2)C[C@@H]1F [Example 1128, 5-[4-amino-5-(trifluoromethyl)pyrrolo[2,1-f][1,2,4]triazin-7-yl]-N-[(3R,4S)-1-(3,3-difluorocyclobutanecarbonyl)-4-fluoropyrrolidin-3-yl]-2-methoxybenzamide]",IC50,0.174 µM
"Nc1ncnn2c(-c3ccc(Cl)c(C(=O)N[C@@H]4CN(C(=O)CC(C(F)(F)F)C(F)(F)F)C[C@@H]4F)c3)cc(CN3CCC(F)(F)CC3)c12 [Example 1138, 5-{4-amino-5-[(4,4-difluoropiperidin-1-yl)methyl]pyrrolo[2,1-f][1,2,4]triazin-7-yl}-2-chloro-N-[(3R,4S)-4-fluoro-1-[4,4,4-trifluoro-3-(trifluoromethyl)butanoyl]pyrrolidin-3-yl]benzamide]",IC50,> 15 µM
"Nc1ncnn2c(-c3ccc(Cl)c(C(=O)N[C@@H]4CN(C(=O)C5CC(F)(F)C5)C[C@@H]4F)c3)cc(CN3CCC(F)(F)CC3)c12 [Example 1140, 5-{4-amino-5-[(4,4-difluoropiperidin-1-yl)methyl]pyrrolo[2,1-f][1,2,4]triazin-7-yl}-2-chloro-N-[(3R,4S)-1-(3,3-difluorocyclobutanecarbonyl)-4-fluoropyrrolidin-3-yl]benzamide]",IC50,> 15 µM
"C[C@@](O)(C(=O)N1C[C@H](F)[C@H](NC(=O)c2cc(-c3cc(CN4CCC(F)(F)CC4)c4c(N)ncnn34)ccc2Cl)C1)C(F)(F)F [Example 1141, 5-{4-amino-5-[(4,4-difluoropiperidin-1-yl)methyl]pyrrolo[2,1-f][1,2,4]triazin-7-yl}-2-chloro-N-[(3R,4S)-4-fluoro-1-[(2R)-3,3,3-trifluoro-2-hydroxy-2-methylpropanoyl]pyrrolidin-3-yl]benzamide]",IC50,> 15 µM
"Nc1ncnn2c(-c3ccc(Cl)c(C(=O)N[C@@H]4CN(C(=O)C5CC(F)C5)C[C@@H]4F)c3)cc(CN3CCC(F)(F)CC3)c12 (stereo partly drawn) [Example 1142, 5-{4-amino-5-[(4,4-difluoropiperidin-1-yl)methyl]pyrrolo[2,1-f][1,2,4]triazin-7-yl}-2-chloro-N-[(3R,4S)-4-fluoro-1-(3-fluorocyclobutanecarbonyl)pyrrolidin-3-yl]benzamide]",IC50,> 15 µM
"Nc1ncnn2c(-c3ccc(Cl)c(C(=O)N[C@@H]4CN(C(=O)C5(F)CC5)C[C@@H]4F)c3)cc(CN3CCC(F)(F)CC3)c12 [Example 1143, 5-{4-amino-5-[(4,4-difluoropiperidin-1-yl)methyl]pyrrolo[2,1-f][1,2,4]triazin-7-yl}-2-chloro-N-[(3R,4S)-4-fluoro-1-(1-fluorocycloproapnecarbonyl)pyrrolidin-3-yl]benzamide]",IC50,> 15 µM
"CC(C)(F)C(=O)N1C[C@H](F)[C@H](NC(=O)c2cc(-c3cc(CN4CCC(F)(F)CC4)c4c(N)ncnn34)ccc2Cl)C1 [Example 1144, 5-{4-amino-5-[(4,4-difluoropiperidin-1-yl)methyl]pyrrolo[2,1-f][1,2,4]triazin-7-yl}-2-chloro-N-[(3R,4S)-4-fluoro-1-(2-fluoro-2-methylpropanoyl)pyrrolidin-3-yl]benzamide]",IC50,> 15 µM
"Nc1ncnn2c(-c3ccc(Cl)c(C(=O)N[C@@H]4CN(C(=O)CC(F)(F)F)C[C@@H]4F)c3)cc(CN3CCC(F)(F)CC3)c12 [Example 1145, 5-{4-amino-5-[(4,4-difluoropiperidin-1-yl)methyl]pyrrolo[2,1-f][1,2,4]triazin-7-yl}-2-chloro-N-[(3R,4S)-4-fluoro-1-(3,3,3-trifluoropropanoyl)pyrrolidin-3-yl]benzamide]",IC50,> 15 µM
"CC(C)CC(=O)N1C[C@H](F)[C@H](NC(=O)c2cc(-c3cc(CN4CCC(F)(F)CC4)c4c(N)ncnn34)ccc2Cl)C1 [Example 1146, 5-{4-amino-5-[(4,4-difluoropiperidin-1-yl)methyl]pyrrolo[2,1-f][1,2,4]triazin-7-yl}-2-chloro-N-[(3R,4S)-4-fluoro-1-(3-methylbutanoyl)pyrrolidin-3-yl]benzamide]",IC50,> 15 µM
"Nc1ncnn2c(-c3ccc(Cl)c(C(=O)N[C@@H]4CN(C(=O)C5CCC(F)(F)CC5)C[C@@H]4F)c3)cc(CN3CCC(F)(F)CC3)c12 [Example 1147, 5-{4-amino-5-[(4,4-difluoropiperidin-1-yl)methyl]pyrrolo[2,1-f][1,2,4]triazin-7-yl}-2-chloro-N-[(3R,4S)-1-(4,4-difluorocyclohexanecarbonyl)-4-fluoropyrrolidin-3-yl]benzamide]",IC50,> 15 µM
"Nc1ncnn2c(-c3ccc(Cl)c(C(=O)N[C@@H]4CN(C(=O)C5CCC(F)(F)C5)C[C@@H]4F)c3)cc(CN3CCC(F)(F)CC3)c12 (stereo partly drawn) [Example 1148, 5-{4-amino-5-[(4,4-difluoropiperidin-1-yl)methyl]pyrrolo[2,1-f][1,2,4]triazin-7-yl}-2-chloro-N-[(3R,4S)-1-(3,3-difluorocyclopentanecarbonyl)-4-fluoropyrrolidin-3-yl]benzamide]",IC50,> 15 µM
"Nc1ncnn2c(-c3ccc(Cl)c(C(=O)N[C@@H]4CN(C(=O)C5(F)CC5)C[C@@H]4F)c3)cc(CN3CCC(C(F)(F)F)CC3)c12 [Example 1149, 5-(4-amino-5-{[4-(trifluoromethyl)piperidin-1-yl]methyl}pyrrolo[2,1-f][1,2,4]triazin-7-yl)-2-chloro-N-[(3R,4S)-4-fluoro-1-(1-fluorocyclopropanecarbonyl)pyrrolidin-3-yl]benzamide]",IC50,> 5 µM
"CC(CC(=O)N1C[C@H](F)[C@H](NC(=O)c2cc(-c3cc(CN4CCC(C(F)(F)F)CC4)c4c(N)ncnn34)ccc2Cl)C1)C(F)(F)F (stereo partly drawn) [Example 1150, 5-(4-amino-5-{[4-(trifluoromethyl)piperidin-1-yl]methyl}pyrrolo[2,1-f][1,2,4]triazin-7-yl)-2-chloro-N-[(3R,4S)-4-fluoro-1-(4,4,4-trifluoro-3-methylbutanoyl)pyrrolidin-3-yl]benzamide]",IC50,> 15 µM
"Nc1ncnn2c(-c3ccc(Cl)c(C(=O)N[C@@H]4CN(C(=O)C5CC(F)C5)C[C@@H]4F)c3)cc(CN3CCC(C(F)(F)F)CC3)c12 (stereo partly drawn) [Example 1151, 5-(4-amino-5-{[4-(trifluoromethyl)piperidin-1-yl]methyl}pyrrolo[2,1-f][1,2,4]triazin-7-yl)-2-chloro-N-[(3R,4S)-4-fluoro-1-(3-fluorocyclobutanecarbonyl)pyrrolidin-3-yl]benzamide]",IC50,> 15 µM
"CC(C)(F)C(=O)N1C[C@H](F)[C@H](NC(=O)c2cc(-c3cc(CN4CCC(C(F)(F)F)CC4)c4c(N)ncnn34)ccc2Cl)C1 [Example 1152, 5-(4-amino-5-{[4-(trifluoromethyl)piperidin-1-yl]methyl}pyrrolo[2,1-f][1,2,4]triazin-7-yl)-2-chloro-N-[(3R,4S)-4-fluoro-1-(2-fluoro-2-methylpropanoyl)pyrrolidin-3-yl]benzamide]",IC50,> 15 µM
"CC(O)(CC(=O)N1C[C@H](F)[C@H](NC(=O)c2cc(-c3cc(CN4CCC(C(F)(F)F)CC4)c4c(N)ncnn34)ccc2Cl)C1)C(F)(F)F (stereo partly drawn) [Example 1153, 5-(4-amino-5-{[4-(trifluoromethyl)piperidin-1-yl]methyl}pyrrolo[2,1-f][1,2,4]triazin-7-yl)-2-chloro-N-[(3R,4S)-4-fluoro-1-(4,4,4-trifluoro-3-hydroxy-3-methylbutanoyl)pyrrolidin-3-yl]benzamide]",IC50,> 15 µM
"CC(C)CC(=O)N1C[C@H](F)[C@H](NC(=O)c2cc(-c3cc(CN4CCC(C(F)(F)F)CC4)c4c(N)ncnn34)ccc2Cl)C1 [Example 1154, 5-(4-amino-5-{[4-(trifluoromethyl)piperidin-1-yl]methyl}pyrrolo[2,1-f][1,2,4]triazin-7-yl)-2-chloro-N-[(3R,4S)-4-fluoro-1-(3-methylbutanoyl)pyrrolidin-3-yl]benzamide]",IC50,> 15 µM
Nc1ncnn2c(-c3ccc(Cl)c(C(=O)N[C@@H]4CN(C(=O)C5CC(F)(F)C5)C[C@@H]4F)c3)cc(CN3CCC(C(F)(F)F)CC3)c12 [Example 1157],IC50,> 15 µM
"Nc1ncnn2c(-c3ccc(Cl)c(C(=O)N[C@@H]4CN(C(=O)c5ccccc5F)C[C@@H]4F)c3)cc(CN3CCC(C(F)(F)F)CC3)c12 [Example 1158, 5-(4-amino-5-{[4-(trifluoromethyl)piperidin-1-yl]methyl}pyrrolo[2,1-f][1,2,4]triazin-7-yl)-2-chloro-N-[(3R,4S)-4-fluoro-1-(2-fluorobenzoyl)pyrrolidin-3-yl]benzamide]",IC50,> 15 µM
"C[C@@](O)(C(=O)N1C[C@H](F)[C@H](NC(=O)c2cc(-c3cc(CN4CCC(C(F)(F)F)CC4)c4c(N)ncnn34)ccc2Cl)C1)C(F)(F)F [Example 1159, 5-(4-amino-5-{[4-(trifluoromethyl)piperidin-1-yl]methyl}pyrrolo[2,1-f][1,2,4]triazin-7-yl)-2-chloro-N-[(3R,4S)-4-fluoro-1-[(2R)-3,3,3-trifluro-2-hydroxy-2-methylpropanoyl]pyrrolidin-3-yl]benzamide]",IC50,> 15 µM
"Nc1ncnn2c(-c3ccc(Cl)c(C(=O)N[C@@H]4CN(C(=O)C5CCC(F)(F)CC5)C[C@@H]4F)c3)cc(CN3CCC(C(F)(F)F)CC3)c12 [Example 1160, 5-(4-amino-5-{[4-(trifluoromethyl)piperidin-1-yl]methyl}pyrrolo[2,1-f][1,2,4]triazin-7-yl)-2-chloro-N-[(3R,4S)-1-(4,4-difluorocyclohexanecarbonyl)-4-fluoropyrrolidin-3-yl]benzamide]",IC50,> 15 µM
"Nc1ncnn2c(-c3ccc(Cl)c(C(=O)N[C@@H]4CN(C(=O)C5CCC(F)(F)C5)C[C@@H]4F)c3)cc(CN3CCC(C(F)(F)F)CC3)c12 (stereo partly drawn) [Example 1161, 5-(4-amino-5-{[4-(trifluoromethyl)piperidin-1-yl]methyl}pyrrolo[2,1-f][1,2,4]triazin-7-yl)-2-chloro-N-[(3R,4S)-1-(3,3-difluorocyclopentanecarbonyl)-4-fluoropyrrolidin-3-yl]benzamide]",IC50,> 15 µM
